# Experiments:
# Protein sequences, listed by entry. Tags and fused reporters are not part of them. Lines headed by an entry give the natural chain unless they say otherwise; changes in a name come on top.
# UniProt P06873: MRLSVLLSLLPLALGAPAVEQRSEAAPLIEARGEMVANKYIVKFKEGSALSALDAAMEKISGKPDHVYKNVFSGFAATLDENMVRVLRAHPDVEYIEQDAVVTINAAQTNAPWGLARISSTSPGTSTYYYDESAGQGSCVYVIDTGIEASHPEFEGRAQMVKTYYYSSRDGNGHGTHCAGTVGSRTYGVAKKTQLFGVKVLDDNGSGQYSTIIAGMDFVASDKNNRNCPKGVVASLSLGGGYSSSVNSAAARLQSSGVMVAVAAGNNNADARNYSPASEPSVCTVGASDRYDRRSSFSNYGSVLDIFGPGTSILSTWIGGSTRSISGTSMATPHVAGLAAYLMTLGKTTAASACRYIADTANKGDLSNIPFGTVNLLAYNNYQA
# proteinase K = proteinase K (Parengyodontium album, UniProt P06873); test: Sensitivity to proteinase K
# [1] = Heat stability of the peptide
substance,measurement,setting,value
LCSYIDV,sensitivity to proteinase K,proteinase K,sensitive to proteinase K
same,heat stability,[1],heat liable
